The text below walks through data of PubChem BioAssay AID1009 (NMMLSC, 2008).

Amino acid sequences for entries named in this document (tags omitted).
UniProt Q07820, whole entry, looked up: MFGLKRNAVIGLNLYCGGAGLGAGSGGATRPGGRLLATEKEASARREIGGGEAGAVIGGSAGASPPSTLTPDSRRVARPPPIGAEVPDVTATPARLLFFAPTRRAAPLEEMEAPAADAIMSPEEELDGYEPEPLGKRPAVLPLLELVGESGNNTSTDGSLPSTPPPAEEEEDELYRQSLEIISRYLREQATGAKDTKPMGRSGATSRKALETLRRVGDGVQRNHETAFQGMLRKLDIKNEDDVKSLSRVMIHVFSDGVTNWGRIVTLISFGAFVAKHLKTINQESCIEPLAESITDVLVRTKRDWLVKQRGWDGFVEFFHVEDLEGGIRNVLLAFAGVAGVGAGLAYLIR

The entries are a selection whose mix differs from that of the whole data set. Active and inactive are the calls of the source. No stated cut-off is given here; in the data, active means inhibition above about 40%.

The target of this assay is Induced myeloid leukemia cell differentiation protein Mcl-1 (Homo sapiens) (UniProt Q07820). Description: Mcl-1/Bim interaction disruptors – biochemical, bead-based flow cytometry, multiplex, primary screen (AID 1009).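 Further: 0% = no compound tracer wells and 100% = peptide blocker.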 The settings on record: Bim peptide-Mcl-1 binding, at 10 µM, active compounds read high. Background: A flow cytometer gives signals particle by particle.
Turning to `Clc1n[nH]nc1-c1nn[nH][15n]1`, the inhibition (usually the change of the read-out against control, counted positive when it falls) was inactive: -5%.
For `O=P1(Nc2ccccn2)COc2ccccc2OC1` the value was inactive: -2%; for `CN(C(=O)Cc1ccc(Cl)c(Cl)c1)[C@@H]1CCCC[C@H]1N1CCCC1`, inactive: 0%.
For `CC(C)/C=N\N=C(\N)N[N+](=O)[O-]` the value was inactive: 0%.
In the case of `CN(C)C1(CNC(=O)c2ccc(S(C)(=O)=O)cc2)CCCCC1` it was inactive: 0%.
For the molecule `Cc1nn(-c2ccccc2)c2c1P(=O)(N1CCOCC1)N(C)C(c1ccccc1)=N2` (centres undefined), the inhibition is inactive: 0%.
For `CC1CCC(C(C)C)C(OP(=O)(Nc2ccccn2)c2ccccc2)C1` (centres undefined) the value was inactive: 0%; for `Cc1ccc(OCC(=O)OC2CN3CCC2CC3)cc1` (centres undefined), inactive: -3%.
In the case of `O=P1(Nc2ccc(Br)cn2)COc2ccccc2OC1` it was inactive: 1%; in that of `O=P1(Nc2ncccn2)COc2ccccc2OC1`, inactive: 2%.
As for `CCOP1(=S)c2c(C)nn(CCC#N)c2N=C(c2ccccc2F)N1C` (centres undefined), the inhibition is inactive: -1%.
In the case of `O=P(Nc1nccs1)(Oc1ccccc1)Oc1ccccc1` it was inactive: 0%; in that of `O=P(Nc1nccs1)(c1ccccc1)c1nc2ccccc2s1` (centres undefined), inactive: -1%.
In the case of `O=[N+]([O-])c1ccc2c(c1)nnn2O` it was inactive: -2%; in that of `CCOP1(=S)c2c(C)nn(CCC#N)c2N=C(c2ccc(F)cc2)N1C` (centres undefined), active: 52%; in that of `Cc1cccc(OCC(=O)OC2CN3CCC2CC3)c1` (centres undefined), inactive: 20%.
Regarding `COc1cc(C(=O)NCC2(N3CCOCC3)CCCCC2)cc(Cl)c1OC(C)C`, the inhibition was inactive: -3%.
For `COc1cc(C2NCCC3(OCCO3)C2(C)C)cc(OC)c1OC` (centres undefined) the value was inactive: -4%; for `CCOP(=O)(Nc1cccc2ccccc12)OCC`, inactive: -7%.
For `Cc1ccc(NCCc2c([N+](=O)[O-])cc([N+](=O)[O-])cc2[N+](=O)[O-])cc1` the value was inactive: -2%; for `COc1ccc2nc(NP(=O)(c3ccccc3)c3ccccc3)sc2c1`, inactive: -1%.
As to `O=C(OC1CN2CCC1CC2)C12CC3CC(CC(C3)C1)C2` (centres undefined), the inhibition is inactive: -1%.
Turning to `Cc1cc(=O)[nH]c(N[N+](=O)[O-])n1`, the inhibition was inactive: 0%.
On to `Cc1c2c(nc3ccccc13)SC(C(Cl)Cl)C2` (centres undefined), for which the inhibition was inactive: -2%.
In the case of `COc1ccc(N/C(=N/P(=O)(N2CCOCC2)N2CCOCC2)N2CCOCC2)cc1` it was inactive: -1%; in that of `Cc1ccc2nc3c(c(C)c2c1)CC(C(Cl)Cl)S3` (centres undefined), inactive: -5%; in that of `CC(C)NC(=O)NP(=O)(Oc1ccccc1)Oc1ccccc1`, inactive: -2%.
For `CCN(CC)C(=S)SC(NC=O)C(Cl)(Cl)Cl` (centres undefined) the value was inactive: -5%; for `O=[N+]([O-])c1cc([N+](=O)[O-])c(-c2ccn[nH]2)s1`, inactive: -22%; for `ClCCSc1nnc(-c2cccnc2)o1`, inactive: -8%.
In the case of `Cc1cc(SC(NC(=O)c2ccccc2)C(Cl)(Cl)Cl)nc(C(C)C)n1` (centres undefined) it was inactive: -9%.
With `Cc1cc(SC(NC=O)C(Cl)(Cl)Cl)ncn1` (centres undefined), the inhibition is inactive: -4%.
For `O=P(Nc1ccccn1)(c1cccc2ccccc12)c1cccc2ccccc12` the value was inactive: -3%.
In the case of `O=C(COc1ccccc1)OC1CN2CCC1CC2` (centres undefined) it was inactive: -2%; in that of `COP1(=S)c2c(C)nn(CCC#N)c2N=C(c2ccc(F)cc2)N1C` (centres undefined), inactive: -1%.
For `CCC(C)N(CC(C)C)C(=S)SC(NC(C)=O)C(Cl)(Cl)Cl` (centres undefined) the value was inactive: 0%; for `CC(=O)N1C2C3N(C(C)=O)C1C1N(C(C)=O)C(C(N1C(C)=O)N3C(C)=O)N2C(C)=O`, inactive: 29%; for `O=[N+]([O-])c1cccc2n[nH]nc12`, inactive: 0%.
In the case of `Cc1ccc(NP(=O)(Oc2ccccc2)Oc2ccccc2)nc1`, the inhibition was inactive: 3%.
In the case of `O=[N+]([O-])c1cc([N+](=O)[O-])c(CCNc2ccccc2)c([N+](=O)[O-])c1` it was inactive: 3%; in that of `CCc1nc2c(n1)c1c(non1O)c1c2no[n+]1[O-]`, inactive: 24%; in that of `COc1ccc(C2=NCC(CBr)S2)cc1` (centres undefined), inactive: -2%.
In the case of `CC(C)=N/N=C(\N)N[N+](=O)[O-]` it was inactive: -6%; in that of `CN(C)C(=O)OCCc1n(C)cc[n+]1C`, inactive: -8%.
For `CC1CCN(C(=O)Oc2c(Cl)cc(Cl)c3cccnc23)CC1` the value was inactive: -2%.
Regarding `CCN(/C(=N/P(=O)(N1CCOCC1)N1CCOCC1)N1CCOCC1)c1ccc(OC)cc1`, the inhibition is inactive: 0%.
In the case of `O=[N+]([O-])c1ncn(CCn2ncnc2[N+](=O)[O-])n1` it was inactive: -1%; in that of `Cc1cc(SC(NC(=O)c2ccc(F)cc2)C(Cl)(Cl)Cl)ncn1` (centres undefined), inactive: -13%; in that of `CCOP(=O)(Nc1ccccc1)OCC`, inactive: 0%.
Take `CCN(N=Nc1nonc1N)c1nonc1N`: the inhibition was inactive: -5%.
For `COc1ccccc1OP(=O)(Nc1ccc(C)cn1)Oc1ccccc1OC` the value was inactive: 3%.
In the case of `CN1CCCC(OC(=O)C(c2ccccc2)c2ccccc2)C1` (centres undefined) it was inactive: 0%.
Regarding `Clc1ccc(Cl)c(NC2=NCC(CBr)S2)c1` (centres undefined), the inhibition was inactive: -3%.
In the case of `NC(=O)c1cc([N+](=O)[O-])cc([N+](=O)[O-])c1N` it was inactive: -1%.
For `Cc1ccc(N/C(=N/P(=O)(N2CCOCC2)N2CCOCC2)N2CCOCC2)cc1` the value was inactive: -2%; for `CC(C)CC(=O)NC(Sc1ccc(Cl)cc1)C(Cl)(Cl)Cl` (centres undefined), inactive: 0%.
For the molecule `Oc1ccccc1CNc1ccccn1`, the inhibition is inactive: -5%.
For `O=C(NC(Sc1ccncn1)C(Cl)(Cl)Cl)c1ccccc1` (centres undefined) the value was inactive: -8%.
Turning to `Cc1c2non([O-])c-2c(C)[n+](=O)[n+]1[O-]`, the inhibition is inactive: -4%.
For `CC(C)(C)C(=O)NC(Sc1ccccc1)C(Cl)(Cl)Cl` (centres undefined) the value was inactive: 2%; for `O=P1(Nc2nc3ccc(Cl)cc3s2)COc2ccccc2O1` (centres undefined), inactive: 1%.
For the molecule `CCOc1ccc(C2=NCC(CBr)S2)cc1` (centres undefined), the inhibition is inactive: -1%.
In the case of `CC(=O)Nc1ccc(Oc2c([N+](=O)[O-])cc([N+](=O)[O-])cc2[N+](=O)[O-])cc1` it was inactive: 2%; in that of `O=C(NC1CCS(=O)(=O)C1)NP(=S)(Oc1ccccc1)Oc1ccccc1` (centres undefined), inactive: -7%; in that of `CCNC(=S)/N=C(\N)N[N+](=O)[O-]`, inactive: 3%.
In the case of `c1ccc(-c2nn[nH]n2)c(-c2nn[nH]n2)c1`, the inhibition was inactive: 0%.
Regarding `CCOC(=O)NC(Sc1ccccc1)C(Cl)(Cl)Cl` (centres undefined), the inhibition is inactive: 0%.
In the case of `O=c1c2cc([N+](=O)[O-])ccc2[nH]c2c([N+](=O)[O-])cc([N+](=O)[O-])cc12` it was inactive: 0%.
In the case of `COC(=O)c1cc2c(s1)N=C(c1ccccc1)N(C)P2(=O)N1CCOCC1` (centres undefined) it was inactive: -2%.
In the case of `CC(=O)NC(SC(=S)N(CC(C)C)CC(C)C)C(Cl)(Cl)Cl` (centres undefined) it was inactive: -2%; in that of `Cc1ccc(OP(=O)(Nc2ccccn2)Oc2ccc(C)cc2)cc1`, inactive: 0%; in that of `CCC(=O)N1C2C3N(C(=O)CC)C1C1N(C(=O)CC)C(C(N1C(=O)CC)N3C(=O)CC)N2C(=O)CC`, inactive: 3%.
On to `O=P(Nc1ccccn1)(c1ccc(Br)cc1)c1ccc(Br)cc1`, for which the inhibition was inactive: 0%.
In the case of `C(Cc1nn[nH]n1)Cc1nn[nH]n1` it was inactive: -1%.
In the case of `O=C(OC1CN2CCC1CC2)c1cccc(Cl)c1` (centres undefined) it was inactive: 1%; in that of `CC(=O)NC(SC(=S)N(C)C)C(Cl)(Cl)Cl` (centres undefined), inactive: -10%; in that of `c1nnnn1CCn1cnnn1`, inactive: -1%.
In the case of `O=P(Nc1nccs1)(c1ccccc1)c1ccccc1` it was inactive: 0%; in that of `CC(C)C(=O)NC(Sc1ccccc1)C(Cl)(Cl)Cl` (centres undefined), inactive: -6%.
